Ab-14 light chain CDR variants: yeast mating affinities

Data: MIT Lincoln Laboratory AlphaSeq set, Li et al. 2023, doi:10.1038/s41467-023-39022-2, as distributed in FLAb.

All variants were tested on one target, the spike HR2 peptide PDVDLGDISGINAS (SARS-CoV-2).

Parent: Ab-14, a human scFv built as VH, three GGGGS repeats, VL. Only the CDRs of the light chain vary.
VH: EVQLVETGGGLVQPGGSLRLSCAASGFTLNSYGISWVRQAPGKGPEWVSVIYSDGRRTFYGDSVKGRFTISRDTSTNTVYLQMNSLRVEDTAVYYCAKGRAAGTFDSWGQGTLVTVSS
VL: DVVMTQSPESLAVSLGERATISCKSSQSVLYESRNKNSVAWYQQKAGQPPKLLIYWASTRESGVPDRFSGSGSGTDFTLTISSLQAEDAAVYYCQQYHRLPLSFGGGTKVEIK

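The parent was found by panning a naive human phage display library on the peptide. Designed CDR sequences, proposed from the first random library and measured here. Their group label is 14L_GP_Gibbs (GP: Gaussian process model; Gibbs: Gibbs sampling; a sequence that several methods proposed may carry one label only). The scFvs were displayed on barcoded MATa yeast, the peptide on MATalpha yeast. After mating in shaken culture at 30 °C for 16 h, diploids were selected and their barcode pairs sequenced. Read counts were normalised to the haploid input and turned into Kd by a linear fit to BCL2-family pairs of known affinity, for each replicate. Each pool was mated in six replicate cultures.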

The parent's light chain CDRs are KSSQSVLYESRNKNSVA, WASTRES, QQYHRLPLS; each variant's own CDRs replace them letter for letter. Affinities are written as log10 Kd with Kd in nM; a lower number is a better binder. A mean of the replicates is given; it leaves out those without a signal. Nonspecific signal, from three strains lacking the peptide, appeared in 4% of pairings of all light chain designs, centred on 2.64 (5% of these signals below 1.59); values are not corrected for it. For each scFv, signals with the empty controls are counted beside the result, with their mean in brackets. A sequence measured in both rounds can read differently, since the two assays cover different ranges. Of ten entries with the parent sequence, four were seen in most replicates (averages 0.34 to 2.37), three in one and three in none, so single entries are noisy. The authors averaged sequences with at least three values out of six and counted those with two or fewer as poor binders.

{"CDR-L1": "KVSGSQLYEERNSNSVA", "CDR-L2": "NASNRES", "CDR-L3": "QQYHRLPLS", "log10 Kd (nM) by replicate": "-0.12 -0.12 -0.31 -0.14 -0.11 -0.13", "log10 Kd (nM), mean": "-0.15", "signal with controls": "0/18"}
{"CDR-L1": "KFSYSELYEERNQNSVA", "CDR-L2": "GASQRES", "CDR-L3": "QQYHRLPLS", "log10 Kd (nM) by replicate": "0.31 0.08 0.08 0.08 -0.20 0.20", "log10 Kd (nM), mean": "0.09", "signal with controls": "1/18 (2.21)"}
{"CDR-L1": "KLSQSYLYESTNSNSVA", "CDR-L2": "DASTRYS", "CDR-L3": "QQYHRLPLS", "log10 Kd (nM) by replicate": "0.34 0.19 0.03 0.03 0.34 0.30", "log10 Kd (nM), mean": "0.20", "signal with controls": "1/18 (2.61)"}
{"CDR-L1": "KSSNSTLYEDGMKNSVA", "CDR-L2": "NASKRES", "CDR-L3": "QQYHRLPLS", "log10 Kd (nM) by replicate": "0.25 0.39 0.25 -0.01 0.22 0.62", "log10 Kd (nM), mean": "0.29", "signal with controls": "0/18"}
{"CDR-L1": "KARQSNLYESRNQNSVA", "CDR-L2": "SASQRLD", "CDR-L3": "QQYHRLPLS", "log10 Kd (nM) by replicate": "0.61 0.35 0.31 0.23 0.45 0.44", "log10 Kd (nM), mean": "0.40", "signal with controls": "0/18"}
{"CDR-L1": "ALSQSQGGESRNPNSVA", "CDR-L2": "HASTREQ", "CDR-L3": "QQYHRLPLS", "log10 Kd (nM) by replicate": "-0.08 -0.37 -0.46 -0.56 -0.57 -0.30", "log10 Kd (nM), mean": "-0.39", "signal with controls": "1/18 (3.00)"}
{"CDR-L1": "KSSPSVMGEERNSNSVA", "CDR-L2": "AASVREV", "CDR-L3": "QQYHRLPLS", "log10 Kd (nM) by replicate": "0.26 0.00 0.07 0.13 0.33 0.50", "log10 Kd (nM), mean": "0.21", "signal with controls": "0/18"}
{"CDR-L1": "LVSQQNLYEDRNKNSVA", "CDR-L2": "NASQRLS", "CDR-L3": "QQYHRLPLS", "log10 Kd (nM) by replicate": "-0.09 0.15 -0.08 -0.14 -0.16 -0.04", "log10 Kd (nM), mean": "-0.06", "signal with controls": "2/18 (2.33)"}
{"CDR-L1": "KSMQEWEYQSRNKNSVA", "CDR-L2": "HASLRES", "CDR-L3": "QQYHRLPLS", "log10 Kd (nM) by replicate": "1.00 0.78 0.33 0.66 0.85 0.68", "log10 Kd (nM), mean": "0.72", "signal with controls": "2/18 (3.24)"}
{"CDR-L1": "KQQCGELYGSRNKNSVA", "CDR-L2": "DASQREE", "CDR-L3": "QQYHRLPLS", "log10 Kd (nM) by replicate": "0.21 0.15 0.23 -0.08 0.21 0.27", "log10 Kd (nM), mean": "0.17", "signal with controls": "2/18 (3.21)"}
{"CDR-L1": "KSEMLWDYKDRNLNSVA", "CDR-L2": "NASTRES", "CDR-L3": "QQYHRLPLS", "log10 Kd (nM) by replicate": "0.63 0.75 1.42 1.01 0.77 0.46", "log10 Kd (nM), mean": "0.84", "signal with controls": "0/18"}
{"CDR-L1": "KLMQEDEYQSRMKNSVA", "CDR-L2": "HASLRES", "CDR-L3": "QQYHRLPLS", "log10 Kd (nM) by replicate": "0.35 0.44 -0.03 0.24 0.24 0.32", "log10 Kd (nM), mean": "0.26", "signal with controls": "1/18 (3.52)"}
{"CDR-L1": "KLQQSRLYMDRNANNVA", "CDR-L2": "NASQRES", "CDR-L3": "QQYHRLPLS", "log10 Kd (nM) by replicate": "0.16 -0.07 -0.11 0.03 -0.08 0.26", "log10 Kd (nM), mean": "0.03", "signal with controls": "4/18 (2.48)"}
{"CDR-L1": "KFQQQDLYSSRNKNSVA", "CDR-L2": "NASTRSQ", "CDR-L3": "QQYHRLPLS", "log10 Kd (nM) by replicate": "-0.15 -0.07 -0.27 -0.36 -0.32 -0.15", "log10 Kd (nM), mean": "-0.22", "signal with controls": "0/18"}
{"CDR-L1": "KSGQQFLQEERNWNSVA", "CDR-L2": "DASLRES", "CDR-L3": "QQYHRLPLS", "log10 Kd (nM) by replicate": "0.56 0.55 0.94 0.40 0.52 0.68", "log10 Kd (nM), mean": "0.61", "signal with controls": "1/18 (1.87)"}
{"CDR-L1": "KLSSSWLYEQRNMNSVA", "CDR-L2": "QASQRLR", "CDR-L3": "QQYHRLPLS", "log10 Kd (nM) by replicate": "0.79 0.53 0.46 0.45 0.51 0.53", "log10 Kd (nM), mean": "0.54", "signal with controls": "1/18 (2.42)"}
{"CDR-L1": "KLSNMADYEDRNKNSVA", "CDR-L2": "SASTRES", "CDR-L3": "QQYHRLPLS", "log10 Kd (nM) by replicate": "0.18 0.02 -0.30 -0.10 -0.27 0.09", "log10 Kd (nM), mean": "-0.06", "signal with controls": "2/18 (2.43)"}
{"CDR-L1": "KVSQGMWYESRMKNSVA", "CDR-L2": "NASQREE", "CDR-L3": "QQYHRLPLQ", "log10 Kd (nM) by replicate": "-0.08 -0.13 -0.34 -0.04 -0.24 0.11", "log10 Kd (nM), mean": "-0.12", "signal with controls": "1/18 (3.17)"}
{"CDR-L1": "KLSQSGWMESRNVNNVA", "CDR-L2": "EASQRES", "CDR-L3": "QQYHRLPLS", "log10 Kd (nM) by replicate": "0.08 0.13 -0.03 0.03 -0.02 0.07", "log10 Kd (nM), mean": "0.04", "signal with controls": "1/18 (3.18)"}
{"CDR-L1": "KLSNSYEYESRNMNSVA", "CDR-L2": "NASTRLE", "CDR-L3": "QQYHRLPLS", "log10 Kd (nM) by replicate": "-0.19 -0.31 -0.48 -0.51 -0.35 -0.22", "log10 Kd (nM), mean": "-0.35", "signal with controls": "3/18 (2.47)"}
{"CDR-L1": "KLKQSVGYEERNKNSVA", "CDR-L2": "GASQRES", "CDR-L3": "QQYHRLPLS", "log10 Kd (nM) by replicate": "-0.20 -0.30 -0.48 -0.54 -0.49 -0.31", "log10 Kd (nM), mean": "-0.39", "signal with controls": "1/18 (2.49)"}
{"CDR-L1": "KLSGSVLMESRNKNSVA", "CDR-L2": "SATTRLS", "CDR-L3": "QQYHRLPLS", "log10 Kd (nM) by replicate": "-0.11 -0.05 -0.28 -0.23 -0.16 0.06", "log10 Kd (nM), mean": "-0.13", "signal with controls": "2/18 (2.75)"}
{"CDR-L1": "KLSQSELYESRCHNNVA", "CDR-L2": "EASQRES", "CDR-L3": "QQYHRLPLS", "log10 Kd (nM) by replicate": "0.72 0.65 0.51 0.42 0.38 0.92", "log10 Kd (nM), mean": "0.60", "signal with controls": "1/18 (2.16)"}
{"CDR-L1": "KVMQSKLYESRQKNSVA", "CDR-L2": "NASQREL", "CDR-L3": "QQYHRLPLS", "log10 Kd (nM) by replicate": "0.16 0.17 -0.03 -0.10 0.04 0.10", "log10 Kd (nM), mean": "0.06", "signal with controls": "0/18"}
{"CDR-L1": "KVSQLQDYGSRNKNSVA", "CDR-L2": "NASQREH", "CDR-L3": "QQYHRLPLS", "log10 Kd (nM) by replicate": "0.52 0.23 0.14 0.21 0.00 0.37", "log10 Kd (nM), mean": "0.25", "signal with controls": "1/18 (2.12)"}

Picked from the list: the 3 lowest averages where every replicate gave a value.

{"CDR-L1": "ALSQSQGGESRNPNSVA", "CDR-L2": "HASTREQ", "CDR-L3": "QQYHRLPLS", "log10 Kd (nM) by replicate": "-0.08 -0.37 -0.46 -0.56 -0.57 -0.30", "log10 Kd (nM), mean": "-0.39", "signal with controls": "1/18 (3.00)"}
{"CDR-L1": "KLKQSVGYEERNKNSVA", "CDR-L2": "GASQRES", "CDR-L3": "QQYHRLPLS", "log10 Kd (nM) by replicate": "-0.20 -0.30 -0.48 -0.54 -0.49 -0.31", "log10 Kd (nM), mean": "-0.39", "signal with controls": "1/18 (2.49)"}
{"CDR-L1": "KLSNSYEYESRNMNSVA", "CDR-L2": "NASTRLE", "CDR-L3": "QQYHRLPLS", "log10 Kd (nM) by replicate": "-0.19 -0.31 -0.48 -0.51 -0.35 -0.22", "log10 Kd (nM), mean": "-0.35", "signal with controls": "3/18 (2.47)"}